Patent US10711036B2, “MALT1 inhibitors and uses thereof” (Cornell University, priority 2015, dated 2020)

Chains of the proteins cited; added tags and fusions are not shown.
UniProt Q9UDY8, whole entry: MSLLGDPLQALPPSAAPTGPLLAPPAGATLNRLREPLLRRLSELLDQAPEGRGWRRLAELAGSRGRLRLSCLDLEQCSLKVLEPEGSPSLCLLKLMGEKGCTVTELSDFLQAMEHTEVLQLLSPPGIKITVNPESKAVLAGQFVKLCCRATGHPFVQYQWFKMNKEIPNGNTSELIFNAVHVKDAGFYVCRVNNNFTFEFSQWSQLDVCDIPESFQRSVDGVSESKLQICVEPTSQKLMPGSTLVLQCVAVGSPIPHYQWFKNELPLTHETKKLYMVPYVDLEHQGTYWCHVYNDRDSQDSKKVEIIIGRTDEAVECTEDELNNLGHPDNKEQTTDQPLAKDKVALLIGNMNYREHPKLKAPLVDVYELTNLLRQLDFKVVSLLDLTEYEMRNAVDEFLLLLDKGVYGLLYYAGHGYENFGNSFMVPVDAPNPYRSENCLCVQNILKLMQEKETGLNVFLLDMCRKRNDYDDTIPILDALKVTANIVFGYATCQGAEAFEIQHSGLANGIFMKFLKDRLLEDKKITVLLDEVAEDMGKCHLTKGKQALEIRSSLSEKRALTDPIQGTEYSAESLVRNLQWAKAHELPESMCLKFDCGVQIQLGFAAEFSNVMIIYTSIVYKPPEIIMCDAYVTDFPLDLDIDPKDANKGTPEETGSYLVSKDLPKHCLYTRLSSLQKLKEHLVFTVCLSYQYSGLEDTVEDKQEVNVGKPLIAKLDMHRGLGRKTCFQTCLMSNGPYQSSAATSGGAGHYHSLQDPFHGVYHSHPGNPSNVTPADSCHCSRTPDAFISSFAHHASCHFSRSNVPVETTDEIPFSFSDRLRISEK

What was measured:
MALT1 = MALT1 (Homo sapiens (Human), UniProt Q9UDY8); test: Inhibition constants (Ki) for inhibition of MALT1; conditions: read-out: MALT1 Ki; 100 nM MALT1 used for the assay
Experimental: For exemplary compounds of the disclosure, Ki for inhibition of MALT1 was measured (Table E11). A concentration of 100 nM MALT1 was used for the assay.

OCI-LY1 = test: Maximum killing effect on OCI-LY1
Experimental: (§1) The maximum killing effects on cell-lines OCI-LY3, TMD8, and OCI-LY1 were also measured for select compounds at inhibitor concentration of 20 μM and 5 μM. TMD8 is another line of ABC type diffuse large-B cell lymphoma, while OCI-LY1 is a DLBCL line of the germinal center B-cell subtype. Table E12 lists the measured killing effect for Z-VRPR-fmk, mepazine, and exemplary compounds of the disclosure at concentration of 20 μM or 5 μM.

OCI-LY3 = test: Maximum killing effect on OCI-LY3
Experimental: as §1

RelB cleavage = test: Western blot for RelB cleavage in OCI-LY3 cells; conditions: OCI-LY3 cells pretreated with inhibitor, then 5 μM MG-132 for 2 hours
Experimental: FIG. 1A. Western blots for RelB and MALT1 after 30 minutes pretreatment with indicated doses of compounds or vehicle, followed by proteasome inhibitor MG-132 (5 μM) treatment for 2 hours in OCI-LY3. clev=cleavage product of RelB.
FIG. 1B. Western blots for RelB with indicated doses of compounds or vehicle in OCI-LY3.
Western blot: OCI-Ly3 cells (a line of human diffuse large B-cell lymphoma (ABC type)) were pre-treated for 30 minutes with indicated doses of MALT1 inhibitors followed by a 2-hour treatment with proteasome inhibitor MG-132 at 5 μM. Protein was then extracted in a PBS-based lysis buffer containing 1% NP-40. Equal amounts of total protein (50 to 75 μg) were separated on sodium dodecyl sulfate-polyacrylamide gel electrophoresis (SDS-PAGE), and electrotransferred onto nitrocellulose membranes. Membranes were incubated with primary antibodies (MALT1, from Santa Cruz Biotechnologies, Santa Cruz, Calif.; RELB from Cell Signaling, Danvers, Mass., and α-Tubulin from Sigma), followed by secondary antibodies conjugated to horseradish peroxidase, which were detected by chemiluminescence (Pierce, Thermo Scientific, Rockford, Ill.).
Western blots for RelB and MALT1 show inhibition of RelB cleavage by inhibitors 202, 109, 116, 203, 112, and 107. […]

TMD8 = test: Maximum killing effect on TMD8; conditions: TMD8, 20 μM
Experimental: as §1

Which Ki (MALT1) does the source give for CC(C)C[C@@H](C(=O)N[C@H](C(=O)N1CCC[C@H]1C(=O)N[C@@H](CCCNC(=N)N)C(=O)CF)C(C)C)N(C)C here?
Its Ki is 120 nM.

With CC(C)C[C@H](NC(=O)OCc1ccccc1)C(=O)N[C@H](C(=O)N1CCC[C@H]1C(=O)N[C@@H](CCCNC(=N)N)C(=O)CF)C(C)C as the compound, how does the Maximum killing effect (OCI-LY1; OCI-LY1, 5 μM) read?
Its Maximum killing effect is 6%.

And the Maximum killing effect (OCI-LY1; OCI-LY1, 20 μM)?
The Maximum killing effect was less than 0%.

What about the Maximum killing effect (OCI-LY3; OCI-LY3, 5 μM) of the same compound?
The Maximum killing effect was 71%.

What about the Maximum killing effect (OCI-LY3; OCI-LY3, 20 μM) of the same compound?
The Maximum killing effect was 87%.

What about the “Inhibition of RelB cleavage (Western blot)” value (RelB cleavage) of the same compound?
The value was “inhibition of RelB cleavage”.

And the Maximum killing effect (TMD8)?
The Maximum killing effect was 59%.

And the Ki (MALT1)?
Its Ki is 90 nM.
